Test system: Spleen cells from C57BL/6 (responder) and BALB/c (stimulator) mice
Experiment: Mixed lymphocyte reaction (MLR) assay
Assay type: cell-based
Conditions: read-out: MLR nM; mouse spleen cells, five days, 3H-thymidine proliferation

| Substance | IC50 [nM] |
| --- | --- |
| [(S)-2-Dimethylaminoethylthiomethyl-Sar]^3 cyclosporin A | 4600 |
| [(S)-2-Aminoethylthiomethyl-Sar]^3 cyclosporin A | 10400 |

— patent US9493511B2, “Cyclosporin analogs” (Allergan, Inc., priority 2010, dated 2016)
